Values of other authors as cited in patent publication US20060142315A1, “Substituted biaryl piperazinyl-pyridine analogues” (priority 2003, published 2006).

Chains of the proteins cited; added tags and fusions are not shown. Residues count along the entry.
UniProt O30463, 1-181: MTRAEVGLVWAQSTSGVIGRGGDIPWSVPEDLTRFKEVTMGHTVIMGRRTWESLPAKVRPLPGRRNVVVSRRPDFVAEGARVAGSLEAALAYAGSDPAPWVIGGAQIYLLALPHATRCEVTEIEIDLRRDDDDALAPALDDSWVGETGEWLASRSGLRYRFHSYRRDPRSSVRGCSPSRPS

Target: Ma DHFR (Mycobacterium avium, UniProt O30463)
Details: Ma versus human DHFR, Suling and coworkers; cited from earlier work

For `Cc1cc(Cl)ccc1NCc1cnc2nc(N)nc(N)c2c1C` [Compound 47, 2,4-diamino-6-(2′-methyl-4′-chloroanilino)methyl-5-methylpyrido[2,3-d]pyrimidine], the SI value is given as 15.
